Compounds with a hit are over-represented: about 2.9% of the library has one in this group of screens.
DRD3 antagonist – D3 dopamine receptor (human) antagonism; AID 652054; D3R cells, DiscoveRx beta-arrestin luminescence, antagonist mode; stronger effect = lower value; max response, negative = inhibition, %; actives 2.5% (n = 360,000); P35462; in the data active means max response below about -50%; inconclusive means no clear call, values can overlap the other calls
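Cells expressing the human receptor were seeded at 1500 cells/well, incubated overnight at 37 degrees C in 5% CO2, then exposed to library compounds with dopamine controls for 90 minutes at 37 degrees C before luminescent detection.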
Rango release inh – inhibitors of RanGTP-induced Rango-importin beta complex dissociation; Potency, µM (doses to about 46.1 µM); actives 0.071% (n = 340,000); Biochemical FRET Rango-importin beta, RanGTP-induced dissociation; O95149+P62826; AID 540253; further: nearly all actives have a fitted effect of over 45% in size
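Rango/importin beta premix (0.1/0.25 uM final), PBS + 1 mM DTT + 0.02% Tween-20 + 0.1% BSA; cpd 5 min RT; FRET pre-read; + RanGTP-RCC1 (0.6 uM Ran, 2 mM GTP, 0.2 uM RCC1); 45 min RT; FRET post-read, ex 430, em 486/530 nm.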
Mm-Cpn inhibitor – blocks the Methanococcus maripaludis chaperonin Mm-Cpn. purified Mm-Cpn ATPase, ADP Transcreener TR-FRET. Potency, µM (series often up to 76.9 µM), actives largely listed as inhibitors. actives 0.031% (n = 330,000); active means well fitted inhibition curve with a large enough effect; inconclusive means small, poorly fitted or top-dose-only effect; further: nearly all actives have a fitted effect of over 80% in size
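Purified archaeal Mm-CPN (25nM final) preincubated 10 min at 37degC with compound, then 10uM ATP for 30 min at 37degC; ADP measured by HTRF Transcreener TR-FRET; buffer 30 mM TRIS pH 7.4, 100mM KCl, 5mM MgCl2, 1mM DTT.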
PTAP TSG101 blk – blocks PTAP/TSG101 interaction to inhibit HIV-1 budding; Q99816; Fluorescence polarization, FITC-PTAP peptide / Tsg101 binding; Potency, µM (doses to about 115 µM), actives largely listed as inhibitors; 340,000 tested, under 10 active; active means well fitted inhibition curve with a large enough effect in the main read-out, with a control signal flat, not every such curve was filed as active; inconclusive means small, poorly fitted or top-dose-only effect, or effect the other way, or a change in a side signal; inactive means no such curve, though single readings can be large or run the other way
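Steps: Tsg101 binding domain dispensed (10 uM final), compounds pinned in DMSO, FITC-labeled PTAP-motif peptide added (50 nM final); after 20 min binding at room temperature, polarization measured.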
DRD3 agonist – activates the human D3 dopamine receptor. D3R DiscoveRx beta-arrestin cells, luminescence, 90 min. AID 652048. P35462. max activation, %. actives 0.58% (n = 410,000); in the data active means max activation above about 30%
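Agonist mode: compounds and dopamine controls were applied to plated cells for 90 min at 37 degrees C after an overnight attachment at 1500 cells/well. Luminescent read-out followed 30 - 60 minutes at room temperature with DiscoveRx detection reagent.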
Rango complex inh – Rango-importin beta binding inhibition; Q14974; actives 0.031% (n = 340,000); AID 540263; Potency, µM (highest dose often 92.2 µM); Rango CFP/YFP FRET sensor + importin beta, 45 min; further: nearly all actives have a fitted effect of over 15% in size
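Inhibition scored from the CFP 486 nm/YFP 530 nm FRET ratio 45 min after adding 0.125 microM importin beta to 50 nM Rango biosensor preincubated 5 min with compound (room temperature, PBS with DTT, Tween-20, BSA). No-importin wells as positive control.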
A number is an active result; - = inactive; ? = inconclusive; . = no result given; [ ] = remark or other dose. Unless noted, the call rests on the fitted dose curve.

SMILES	DRD3 antagonist	Rango release inh	Mm-Cpn inhibitor	PTAP TSG101 blk	DRD3 agonist	Rango complex inh
O=C(N/N=C/c1c[nH]c2ccccc12)c1cc(-c2ccccc2)n[nH]1	-	-	-	-	-	-
O=C(N/N=C/c1c[nH]c2ccccc12)c1cc(-c2ccc(-c3ccccc3)cc2)n[nH]1	-	-	-	-	34.9	-
CCc1ccc(-c2cc(C(=O)N/N=C/c3ccco3)[nH]n2)cc1	-	-	-	-	-	-
O=C(N/N=C/c1ccco1)c1cc(-c2ccc3ccccc3c2)n[nH]1	-74.9	-	-	-	-	-
COc1ccc(Br)cc1CNC(=O)CCc1cn(Cc2ccc(C)cc2)c2ccccc12	.	.	.	.	-	.
CCCCN1/C(=C/c2ccc3ccccc3[n+]2CC)Sc2ccccc21	-	-	-	-	-	46.1µM
CCN1/C(=C/c2ccc3cc(C)ccc3[n+]2CC)Sc2cc(C)ccc21	-	?	-	-	-	?
CCN1/C(=C/c2ccc3ccccc3[n+]2CC)C=Cc2ccccc21	-52.5	-	-	?	-	?
O=C(c1ccc(CN2CCc3ccccc3C2)cc1)N1CCCCC1	-72.9	-	-	-	-	-
COc1ccccc1N1CCN(C(=O)c2ccc(CN3CCc4ccccc4C3)cc2)CC1	-67.3	-	-	-	-	-
O=C(c1ccc(CN2CCc3ccccc3C2)cc1)N1CCN(c2ccc(F)cc2)CC1	-65.3	-	.	-	-	-
O=C(c1ccc(Cn2c(=O)[nH]c3ccccc3c2=O)cc1)N1CCN(c2ccc(F)cc2)CC1	-	-	-	-	-	-
COc1ccc(C(=O)N2CCN(c3ccccc3OC)CC2)cc1	-	-	-	-	-	-
NC(=O)c1ccc(CN2CCc3ccccc3C2)cc1	-82.5	-	-	-	-	-
C=C(C)Cn1c(=O)c2c(nc3n2CCN3c2ccc(CC)cc2)n(C)c1=O	.	.	.	.	-	.
Nc1nc2c(s1)CCc1ccccc1-2	-	-	-	-	-	-
CN1CCC(=C2c3ccccc3C(O)c3ccccc32)CC1 (stereo not given)	-79.6	-	-	-	-	-
CN1CCC(=C2c3ccccc3CC(=O)c3sccc32)CC1	-97.9	-	-[15.4 µM]	-	-	-
CN1CCC(=C2c3ccccc3CCc3sccc32)CC1	-91.4	-	-	-	-	-
COc1ccccc1C(=O)COC(=O)COc1cccc2c1OC(C)(C)C2	-65.6	-	-	.	-	-
COc1ccc(NC(=O)COC(=O)COc2cccc3c2OC(C)(C)C3)cc1	-	-	-	-	-	-
O=C(CN1C(=O)COc2ccccc21)NCCCN1CCN(c2ccccc2F)CC1	-90.5	-	-	-	-	-
O=C(NCCCN1CCN(c2ccccc2F)CC1)C1CC(=O)N(C2CCCC2)C1 (stereo not given)	-77.2	-	-	-	41.1	-
O=C(CCN1C(=O)COc2ccccc21)NCCCN1CCc2ccccc2C1	-92.8	-	-	-	-	-
CN1CCN(CCCNC(=O)C2CC(=O)N(C3CCCCC3)C2)CC1 (stereo not given)	-	-	-	-	-	-
SMILES	DRD3 antagonist	Rango release inh	Mm-Cpn inhibitor	PTAP TSG101 blk	DRD3 agonist	Rango complex inh
CN1CCN(CCCNC(=O)CN2C(=O)COc3ccccc32)CC1	-	-	-	-	-	-
Cn1c(=O)cc(OCCCC(=O)NCCN2CCN(c3ccccc3F)CC2)c2ccccc21	?	-	-	-	39.4	-
Nc1ncnc2[nH]c(=S)[nH]c12	?	-	.	-	-	-
CCCCCCCNC(=O)COc1ccc2c(c1)C(=O)CC(C)(C)O2	-	-	-	-	-	-
CCn1c(=O)cc(SCC(=O)NCCCN2CCN(c3ccccc3F)CC2)c2ccccc21	-81.5	-	-	-	-	-
CC1(C)CC(=O)c2cc(OCC(=O)NCCCN3CCN(c4ccccc4F)CC3)ccc2O1	-54.5	-	-	-	-	-
O=C(NCCN1CCN(c2ccccc2F)CC1)C1c2ccccc2C(=O)N2CCc3ccccc3C12 (stereo not given)	-56.6	-	-	-	-	-
O=C(CCN1C(=O)COc2ccccc21)NCCN1CCN(c2ccccc2F)CC1	-64.1	-	-	-	-	-
CCOC(=O)c1c(C)nc2c(c1-c1ccccc1)C(=O)c1ccccc1-2	-	-	-	-	41.1	-
CC1=C(C)/C(=N\OS(=O)(=O)c2ccccc2)C=CC1=O	-88.8	-	-	-	-	-
Cc1ccc(S(=O)(=O)O/N=C2\CCCc3ccccc32)cc1	-	-	-	-	-	-
CCCN1CCN(C(=O)Cn2nc(C)n3c(cc4c(OC)cccc43)c2=O)CC1	-	-	.	-	45.5	-
O=C(N[C@@H](Cc1ccccc1)C(=O)O)c1cccs1	-	-	-	-	-	-
O=C(/C(=N\Nc1ccc([N+](=O)[O-])cc1)Sc1nnnn1-c1ccccc1)c1ccccc1	-82.1	-	-	-	-	-
CC(C)c1ccc(-c2nnn(Cc3nc4ccccc4s3)n2)cc1	-72.0	-	-	-	-	-
COc1ccc2[nH]c3c4c(ccc3c2c1)C(=O)C=CC4=O	-104.8	4.61µM	-	-	-	?
COc1ccc2[nH]c(=O)cc(C(=O)O)c2c1	-	-	-	-	-	-
O=C(Nc1ccccc1F)c1csc(COCCO)n1	-134.2	.	.	.	-	.
O=C(Nc1ccc(Cl)cc1)c1csc(COCCO)n1	-	.	.	.	-	.
COc1cccc(CN(C)C(=O)c2cc(-c3ccc(OC)c(OC)c3)nc3ccccc23)c1	-	-	-	-	34.3	?
CCCc1ccc(S(=O)(=O)NCC2CCCN2CC)cc1 (stereo not given)	-	-	-	-	-	-
CCN1CCCC1CNS(=O)(=O)c1c(C)cc(C)cc1C (stereo not given)	-99.6	-	-	-	-	-
Cc1cc(=O)c2cc(C(=O)Nc3ccccc3)ccc2[nH]1	.	.	.	.	-	.
Cc1ccc(OC(C)C(=O)N(Cc2cccs2)C2CCS(=O)(=O)C2)cc1C (stereo not given)	-	-	-	-	-	-
O=C(COCc1ccccc1)N[C@@H]1c2ccccc2CC[C@@H]1OCc1ccccc1	-	-	-	-	-	-
O=C(Cc1ccccc1)N[C@@H]1c2ccccc2CC[C@@H]1OCc1ccccc1	-90.5	-	-	-	-	-
CC(=O)N1c2ccc(S(=O)(=O)NCC3CCC(C(=O)Nc4cccc(C)c4C)CC3)cc2CC1C (stereo not given)	.	.	.	.	-	.
CCN(CC)c1ccc(C2C(C(=O)OC)=C(C)NC(C)=C2C(=O)OC)cc1	-51.4	-	-	-	-	?
COc1cc2c(cc1NC(=O)C(C)N1CCN(S(=O)(=O)c3ccc(C)c(C)c3)CC1)oc1ccccc12 (stereo not given)	-	-	-	-	31.4	-
